Drawing on PubChem BioAssay AID504444 (National Center for Advancing Translational Sciences (NCATS), 2011), this text covers activity change, negative = inhibition for two molecules.

Molecules are shown by their SMILES. This is a selection; strong and weak results do not stand in their true shares. Results filed as inconclusive are left out. The source made the active and inactive calls. Calls come from the whole dose curve; as a rule, active = well fitted inhibition curve with a large enough effect; inconclusive = small, poorly fitted or top-dose-only effect, or effect the other way; inactive = flat fitted curve, though single readings scatter.
% is set by controls: 0 for no effect and ±100 for the full control effect.

A short description of the test: Nrf2 qHTS screen for inhibitors. Note: nearly all actives have a fitted effect of over 60% in size. The conditions noted are these: A549 ARE-Fluc reporter, luciferase luminescence, 18-24 h; at 46 µM (top of the series).
For the molecule `CCC(=O)N(c1ccccc1)C1(COC)CCN(CCc2cccs2)CC1`, the activity change, negative = inhibition was inactive: -0.0499%. Next, `CCC(=O)N(c1ccccc1)C1(COC)CCN(CCn2nnn(CC)c2=O)CC1`: inactive: 6.45%.
